Measured affinities in a library of Ab-95 light chain variants

Binding partner: SARS-CoV-2 spike HR2 peptide, sequence PDVDLGDISGINAS.

The variants keep the heavy chain, the linker and the frameworks of Ab-95 (scFv order VH, a (GGGGS)3 linker, VL).
VH: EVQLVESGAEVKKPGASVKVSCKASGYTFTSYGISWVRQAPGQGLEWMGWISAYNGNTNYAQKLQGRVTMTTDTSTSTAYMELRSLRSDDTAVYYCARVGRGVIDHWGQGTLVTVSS
VL: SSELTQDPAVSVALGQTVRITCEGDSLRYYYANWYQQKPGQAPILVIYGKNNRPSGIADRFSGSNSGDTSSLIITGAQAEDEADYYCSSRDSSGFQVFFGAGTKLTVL

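The parent was found by panning a naive human phage display library on the peptide. In library AAYL52, one, two or three CDR residues were substituted; doubles and triples were drawn at random. In AlphaSeq, yeast of one mating type display the scFv and yeast of the other type display the target. Pairs that bind mate more often; barcode pairs of the diploids are counted by sequencing. The ratio of observed to expected reads was calibrated, replicate by replicate, on BCL2-family standards whose Kd was known from biolayer interferometry. There are three technical replicates.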

Each variant is given by its three light chain CDRs, as the data file delimits them; those of the parent are EGDSLRYYYAN, GKNNRPS, SSRDSSGFQVF.
Numbers give log10(Kd / nM), so 0 is 1 nM and 3 is 1 µM. Smaller is tighter.
The mean shown is taken over the replicates in which the pair was detected.
A pair that was not seen in that replicate is written "ND"; this usually means weak binding, but a binder can also be missed.
Nonspecific signal, from three strains lacking the peptide, appeared in 28% of pairings of library AAYL52, centred on 3.91 (5% of these signals below 2.90); values are not corrected for it. The control count says in how many pairings with the empty strains this scFv gave a signal, with their mean in brackets.

| CDR-L1 | CDR-L2 | CDR-L3 | replicates, log10 nM | mean, log10 nM | signal with controls |
|---|---|---|---|---|---|
| EGDSLRYYYAN | GKNNRPS | ISRDPSGFQSF | 5.29 3.61 ND | 4.45 | 1 of 9 (2.41) |
| EGDSLRTYYAN | GFNNRMS | SSRDSSGFQVF | 2.53 2.98 3.10 | 2.87 | 1 of 9 (3.66) |
| EGDSLRYYHAN | GKNNRPS | NSRDSSDFQVF | 1.61 1.69 1.27 | 1.52 | 3 of 9 (4.03) |
| EGPSLRYYYAN | GKNNRPS | SSRDSVGFQVV | 5.31 ND ND | 5.31 | 4 of 9 (3.52) |
| EGDSLRYFYAN | GKNNRPS | GSRDSSGNQVF | 3.34 4.95 4.04 | 4.11 | 4 of 9 (3.56) |
| EGDSLYYYYAN | GKTNRPS | SSRDSSYFQVF | ND 5.30 ND | 5.30 | 2 of 9 (4.16) |
| EGDSLRYYYAF | GKNNRPS | SSRDQSGFEVF | 4.77 ND ND | 4.77 | 0 of 9 |
| EGDSKRYYYAN | GKFNRPG | SSRDSSGFQVF | ND 4.43 ND | 4.43 | 4 of 9 (3.37) |
| EGDSLRYYYLN | GKNNRPS | SSRDSMGFQVF | ND ND ND | ND | 3 of 9 (3.75) |
| EGDNLRYYYAN | GKNPRPS | SSRDSGGFQVF | ND 4.38 ND | 4.38 | 4 of 9 (3.45) |
| EGDSLRYYYAN | GKNNRPS | SSRDTSGFQNF | 5.43 ND ND | 5.43 | 2 of 9 (4.28) |
| EGDSLRYYYAN | MKNNRPS | ESRDSSGFEVF | 3.57 4.20 ND | 3.89 | 2 of 9 (5.18) |
| FGDSLRYYYAN | GKNNRPS | SSRDSSDFQVS | 4.14 3.32 ND | 3.73 | 0 of 9 |
| EGDFLRYYYAN | GKNNRPR | SSRDSSGFQVF | 4.46 ND 2.74 | 3.60 | 3 of 9 (3.70) |
| EGDSRREYYAN | GKNNRPS | SSDDSSGFQVF | 3.41 3.57 3.29 | 3.42 | 2 of 9 (3.68) |
| EGTSLRYYYAN | GTNNRPS | SSRDSSGFQVF | 3.02 3.14 2.60 | 2.92 | 3 of 9 (3.85) |
| EQDTLRYYYAN | GKNNRPS | SSRDSSGFQDF | 3.74 ND ND | 3.74 | 1 of 9 (4.19) |
| EGHSLRQYYAN | GKNNRPS | SARDSSGFQVF | 1.96 1.87 1.55 | 1.79 | 4 of 9 (3.30) |
| EGDSLRYYYAN | GKNNRLS | VSRDSSGFPVF | ND 3.62 ND | 3.62 | 3 of 9 (3.49) |
| EGDSLRYYYAN | GKNNNPS | SSRDPGGFQVF | 3.33 ND ND | 3.33 | 5 of 9 (3.65) |
| EGDSLRYYYAN | VKNMRPS | GSRDSSGFQVF | 3.39 5.84 4.63 | 4.62 | 3 of 9 (4.55) |
| EGDSLRYYYAH | PHNNRPS | SSRDSSGFQVF | 4.04 4.11 ND | 4.07 | 6 of 9 (3.73) |
| EGDSLRYYYAN | GKNNRPG | SSRDSSFFQVL | ND 3.17 ND | 3.17 | 2 of 9 (3.88) |
| EGDSLRYYYAN | GKGNRPY | SSRDSSGFWVF | 2.28 2.06 1.98 | 2.10 | 3 of 9 (3.97) |
| EGDSLRYYYAN | GGNNFPS | SSRDQSGFQVF | ND 3.37 2.40 | 2.88 | 4 of 9 (3.64) |
| NGDSLRYYYDN | GKDNRPS | SSRDSSGFQVF | 2.72 2.14 2.17 | 2.34 | 6 of 9 (3.97) |
| EGDSLLYYYAN | LKNNRPS | TSRDSSGFQVF | ND ND ND | ND | 0 of 9 |
| EGDSLRYYYAN | GCNNRPS | SSRFTSGFQVF | ND ND 4.46 | 4.46 | 3 of 9 (4.28) |
| ESDSLRYYYWN | GKNNRPS | SSRDSIGFQVF | ND 3.48 4.25 | 3.86 | 3 of 9 (4.00) |
| EGDSLRYYYEN | GKNNRPS | SSRDSSGFQWF | ND ND ND | ND | 2 of 9 (4.03) |
| ENDSLRYYYAN | GKNNRPS | SSRDGSGFQVF | 3.14 4.09 ND | 3.62 | 5 of 9 (3.76) |
| TGDSLRYYYAF | GKNNRPS | SSRDSSMFQVF | ND 5.49 4.40 | 4.94 | 2 of 9 (4.19) |
| EGDSLHYYYAN | GKNRRPS | SSRDSSGFQVF | 3.46 3.35 ND | 3.40 | 4 of 9 (3.49) |
| EKDSLRYVYAN | GKNNRPS | SSRDSSGFGVF | 3.16 5.56 4.25 | 4.32 | 2 of 9 (4.20) |
| EGDSLQYVYAN | GKNNRPS | SSRDSSGKQVF | 2.62 2.68 2.27 | 2.52 | 2 of 9 (4.18) |
| EGHSLRYYYAN | GKNNRPS | SSNDSSGTQVF | 2.36 2.36 2.06 | 2.26 | 1 of 9 (4.73) |
| EGDSLCYYLAN | GKNNRPS | SSRDSSFFQVF | 4.14 4.57 2.97 | 3.89 | 4 of 9 (4.48) |
| EGDSLRYYYAN | GKNNRPK | NQRDSSGFQVF | ND ND ND | ND | 0 of 9 |
| EGDSLHYYYAN | GKNGRPS | SSRDSSHFQVF | 5.23 4.31 4.01 | 4.51 | 2 of 9 (4.00) |
| EMDSLRYYYAN | GKNNRTS | SSRDSSGFQVR | 3.64 ND 3.68 | 3.66 | 3 of 9 (4.01) |
| EGDSLRYDYAN | GKNNRPS | SSRDSSQFQVF | 2.78 2.58 2.31 | 2.56 | 1 of 9 (4.03) |
| EGMSLRYLYAN | GKNNRPS | SSRDSPGFQVF | ND ND ND | ND | 2 of 9 (4.48) |
| EGDSLRHYYAN | GKNNRPI | SSRYSSGFQVF | 2.51 1.80 1.09 | 1.80 | 0 of 9 |
| EGMSLRYYYAN | GKNIRPS | SCRDSSGFQVF | 3.14 2.39 2.83 | 2.79 | 1 of 9 (3.21) |
| EGDSLVYYYAN | GKNNEPS | SSRDSSGFQVM | ND ND ND | ND | 0 of 9 |
| EGDSLRYYYAN | GKCNRPS | RTRDSSGFQVF | ND ND ND | ND | 2 of 9 (3.25) |
| ELDSLRYTYAN | GKNNRPS | SSRDSSGFIVF | 3.15 3.28 3.56 | 3.33 | 6 of 9 (3.95) |

Excerpt, the final 3 entries:

| CDR-L1 | CDR-L2 | CDR-L3 | replicates, log10 nM | mean, log10 nM | signal with controls |
|---|---|---|---|---|---|
| EGDSLVYYYAN | GKNNEPS | SSRDSSGFQVM | ND ND ND | ND | 0 of 9 |
| EGDSLRYYYAN | GKCNRPS | RTRDSSGFQVF | ND ND ND | ND | 2 of 9 (3.25) |
| ELDSLRYTYAN | GKNNRPS | SSRDSSGFIVF | 3.15 3.28 3.56 | 3.33 | 6 of 9 (3.95) |

Values reported by Engelhart et al. 2022, doi:10.1038/s41597-022-01779-4 (FLAb copy).